## Binding of CDR-mutated scFvs to a peptide of the spike HR2 region

Antigen: PDVDLGDISGINAS, a 14-residue peptide of the SARS-CoV-2 spike HR2 region.

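This is the validation round: designs drawn from the data on random variants, tested in the same kind of assay. Their group label is 14L_En_Gen (En: ensemble of fine-tuned language models; Gen: genetic algorithm). The scFvs were displayed on barcoded MATa yeast, the peptide on MATalpha yeast. After mating in shaken culture at 30 °C for 16 h, diploids were selected and their barcode pairs sequenced. The ratio of observed to expected reads was calibrated, replicate by replicate, on BCL2-family standards whose Kd was known from biolayer interferometry. The assay was run in six technical replicates.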

Parent scFv Ab-14: VH joined to VL by the linker GGGGSGGGGSGGGGS. Changes lie in the light chain CDRs alone.
VH: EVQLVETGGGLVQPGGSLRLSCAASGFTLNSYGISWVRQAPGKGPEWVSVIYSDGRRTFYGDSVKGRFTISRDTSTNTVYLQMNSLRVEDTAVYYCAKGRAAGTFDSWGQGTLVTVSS
VL: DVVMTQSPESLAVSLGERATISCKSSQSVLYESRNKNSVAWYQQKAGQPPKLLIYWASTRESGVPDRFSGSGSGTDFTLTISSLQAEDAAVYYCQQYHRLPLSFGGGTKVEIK

Variants are written as CDR1, CDR2 and CDR3 of the light chain (limits as in the source). Parent: KSSQSVLYESRNKNSVA, WASTRES, QQYHRLPLS. Numbers give log10(Kd / nM), so 0 is 1 nM and 3 is 1 µM. Smaller is tighter. The mean shown is taken over the replicates in which the pair was detected. Where no diploid with the target was found in that replicate, the entry reads "ND": below detection, most likely a poor binder, though not proof of it. In the paper, a design with two or fewer of six values counts as a poor binder. Of ten entries with the parent sequence, four were seen in most replicates (averages 0.34 to 2.37), three in one and three in none, so single entries are noisy. A sequence measured in both rounds can read differently, since the two assays cover different ranges. Nonspecific signal, from three strains lacking the peptide, appeared in 4% of pairings of all light chain designs, centred on 2.64 (5% of these signals below 1.59); values are not corrected for it. For each scFv, signals with the empty controls are counted beside the result, with their mean in brackets.

| CDR-L1 | CDR-L2 | CDR-L3 | log10 Kd (nM) by replicate | mean log10 Kd (nM) | signal with controls |
|---|---|---|---|---|---|
| MISQVLNTLTKQGNNVA | DLNNRED | QQYFRLPLS | ND / ND / ND / 0.22 / 0.70 / 0.65 | 0.52 | 1 of 18 (0.53) |
| IVSQLMLWGYHAKNSIA | EAEMRLN | QQYHRLPLF | ND / ND / ND / ND / ND / ND | ND | 0 of 18 |
| IVSQLMLWGYHHKNSIA | EAQTRLN | QQYDRLPLI | 1.31 / 0.78 / 0.40 / 0.94 / 0.93 / 1.53 | 0.98 | 0 of 18 |
| KITATMRFEQKASNNIA | EVTTRSK | QQYFRLPLS | 0.52 / 0.98 / 0.32 / 0.43 / 0.58 / 1.00 | 0.64 | 0 of 18 |
| KVYQGINGHYGAHSSIA | QEETRLD | QQYAHLPLS | 0.04 / 1.15 / 0.35 / 1.61 / 1.40 / 2.10 | 1.11 | 0 of 18 |
| MISQLYNMGSFAINSVA | QAEERNE | QQYDRLPLI | ND / 3.14 / ND / 1.72 / 1.78 / 1.67 | 2.08 | 1 of 18 (2.15) |
| MLSQMTGLGMKVSNSVA | QGSMRFN | QQYHRLPLI | 1.07 / 1.05 / 1.29 / 0.72 / 1.02 / 1.26 | 1.07 | 0 of 18 |
| TISMITSSFTQNINNVA | EVSTRCN | QQYDRLPLS | 1.17 / 1.56 / 1.10 / 0.81 / 0.76 / 1.61 | 1.17 | 0 of 18 |
| TLYGLTNSMSKNKDNVA | EMTTREK | QQYDRLPLA | 0.81 / 1.32 / 0.63 / 1.24 / 1.02 / 1.05 | 1.01 | 1 of 18 (3.97) |
| KIGMTLNTLMHQKNNVA | DLVVREN | QQYHRLPLS | 1.51 / 0.70 / 0.78 / 1.77 / 0.79 / 1.59 | 1.19 | 0 of 18 |
| MISQLMNMGQFAINSVA | QASERSE | QQYDRLPLT | ND / 2.54 / 0.83 / ND / 1.34 / ND | 1.57 | 0 of 18 |
| MVSQLMLWGLHAKNSIA | EAETRIN | QQYDRLPLF | 0.98 / 0.67 / 1.07 / 0.81 / 0.77 / 0.90 | 0.87 | 0 of 18 |
| MISQLMNMGQFAINSVA | QAETRCN | QQYDRLPLE | 2.65 / 2.57 / ND / ND / 2.35 / 3.94 | 2.88 | 2 of 18 (2.59) |
| TISMFMDNLSRNRNNVA | DTSTLGS | QSYDRLPLS | 0.82 / 0.73 / 1.17 / 0.96 / 1.26 / 1.30 | 1.04 | 1 of 18 (2.42) |
| KLSQITGHASVSKNNVA | EMATREN | QQYDRLPLS | 0.91 / 1.11 / 0.98 / 1.02 / 0.90 / 1.30 | 1.04 | 5 of 18 (2.85) |
| HMSMLTLQGMRHVNSVA | QMTTREN | QQYDRLPLS | 1.64 / 1.32 / 1.42 / 2.04 / 0.78 / 1.82 | 1.50 | 0 of 18 |
| MLSQMWALGMKVSNSVA | QASMRFN | QQYERLPLI | 1.00 / 0.57 / 0.05 / -0.04 / 1.47 / 1.01 | 0.68 | 0 of 18 |
| MLSEVLHMLGAKKNSIA | DLVIRAN | QQYHRLPLM | 1.02 / 0.67 / 0.73 / 0.36 / 1.10 / 1.70 | 0.93 | 0 of 18 |
| KLSMYTGHMSVSKNNVA | EMETRVN | QQYDRLPLS | 1.33 / 1.32 / 1.18 / 0.83 / 1.29 / 1.19 | 1.19 | 2 of 18 (3.53) |
| HITMGMYVHGRHHSSIA | QAETRMK | QQYDRLPLI | 1.57 / 1.76 / 1.27 / 1.55 / 1.40 / 1.70 | 1.54 | 0 of 18 |
| KVSEFMKGLMMRTDSIA | DNVTRSN | QQYDRLPLS | 1.44 / 1.11 / 1.66 / 2.41 / 1.19 / 1.60 | 1.57 | 1 of 18 (3.09) |
| KLSMITGHMSMAKNNVA | EMVTREN | QQYNRLPLS | -0.31 / -0.72 / ND / -1.48 / 0.12 / -0.91 | -0.66 | 0 of 18 |
| KIGATLNTLEHKQNNVA | DLVTREN | QQYHRLPLS | 0.25 / 0.20 / 0.17 / -0.04 / 0.26 / 0.35 | 0.20 | 0 of 18 |
| QIYQAMHTLMQATNNVA | DVTNRNN | QQYHRLPLS | 0.75 / 0.29 / 0.32 / 0.51 / 0.44 / 0.52 | 0.47 | 2 of 18 (4.15) |
| MISQLANMGTFAINSVA | QASLRNE | QQYDRLPLM | ND / ND / ND / ND / 1.17 / ND | 1.17 | 0 of 18 |
| QLGMMLHELSKVTNSVA | EMTTRGN | QQYFRLPLS | 0.27 / -0.03 / 0.04 / 0.18 / 0.69 / 0.47 | 0.27 | 0 of 18 |
| MISQLMNLGQFAINSVA | QASIRNQ | QQYDRLPLA | 1.23 / ND / 1.42 / 1.70 / 2.03 / 2.65 | 1.81 | 0 of 18 |
| KLSMVTGHMSMEKNNVA | EMETREK | QQYNRLPLA | 1.38 / 0.86 / 0.74 / 1.02 / ND / 2.50 | 1.30 | 1 of 18 (1.46) |
| TLYGLSMSMSKNKNNVA | EMSTREP | QQYDRLPLI | 0.86 / 0.95 / 0.63 / 0.26 / 0.79 / 0.98 | 0.74 | 0 of 18 |
| KLSMTTEQEHVNRNSVA | ELVTRIS | QQYNRLPLS | 1.28 / 1.38 / 1.66 / 1.33 / ND / ND | 1.41 | 0 of 18 |
| MLTMVADISNKQNNSVA | ELETREN | QQYDRLPLS | ND / 3.25 / 1.89 / ND / 4.48 / ND | 3.21 | 2 of 18 (3.74) |

Values reported by Li et al. 2023, doi:10.1038/s41467-023-39022-2 (FLAb copy).